Data: patent US20260035382A1, “COMPOUNDS AS SUMO ACTIVATING ENZYME INHIBITORS” (WIGEN BIOMEDICINE TECHNOLOGY (SHANGHAI) CO., LTD., priority 2022, published 2026)

Sequences of proteins named here, by UniProt entry; tags and fusion partners are left off.
UniProt Q9UBT2, whole entry: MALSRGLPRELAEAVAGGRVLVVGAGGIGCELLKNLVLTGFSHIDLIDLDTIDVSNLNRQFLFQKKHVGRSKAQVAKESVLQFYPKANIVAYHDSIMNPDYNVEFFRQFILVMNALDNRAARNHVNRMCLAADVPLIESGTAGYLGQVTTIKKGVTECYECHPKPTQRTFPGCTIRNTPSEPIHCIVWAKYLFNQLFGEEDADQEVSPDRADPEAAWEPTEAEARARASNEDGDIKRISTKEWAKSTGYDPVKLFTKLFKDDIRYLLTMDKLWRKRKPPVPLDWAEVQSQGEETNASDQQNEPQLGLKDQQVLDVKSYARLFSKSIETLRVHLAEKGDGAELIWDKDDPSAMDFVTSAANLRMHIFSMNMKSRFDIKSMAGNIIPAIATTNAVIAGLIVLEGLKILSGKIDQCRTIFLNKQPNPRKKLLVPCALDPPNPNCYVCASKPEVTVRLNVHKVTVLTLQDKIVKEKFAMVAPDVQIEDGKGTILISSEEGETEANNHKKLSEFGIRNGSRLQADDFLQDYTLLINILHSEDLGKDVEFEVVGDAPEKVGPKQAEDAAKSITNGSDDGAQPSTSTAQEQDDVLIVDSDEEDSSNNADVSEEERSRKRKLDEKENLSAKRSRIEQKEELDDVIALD
UniProt Q9UBE0, whole entry partner: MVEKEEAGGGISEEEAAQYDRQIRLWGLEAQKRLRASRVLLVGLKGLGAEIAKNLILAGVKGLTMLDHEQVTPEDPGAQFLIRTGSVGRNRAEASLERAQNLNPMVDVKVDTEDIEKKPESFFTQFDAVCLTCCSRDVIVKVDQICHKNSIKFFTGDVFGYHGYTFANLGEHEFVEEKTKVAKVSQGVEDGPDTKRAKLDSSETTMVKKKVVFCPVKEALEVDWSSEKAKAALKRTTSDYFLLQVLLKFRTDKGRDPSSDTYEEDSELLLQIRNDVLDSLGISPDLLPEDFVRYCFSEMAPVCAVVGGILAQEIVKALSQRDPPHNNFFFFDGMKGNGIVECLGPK

Biological target: SAE (Homo sapiens (Human), UniProt Q9UBT2)
Test: In vitro inhibitory activity assay against SAE (SUMO-2/3 immunofluorescence in HCT116 cells)
Settings: read-out: SUMO IF IC50, 6 h incubation, class symbols
Description: HCT116 cells were seeded into a 96-well black transparent bottom plate at about 20000/well with 90 μL per well. The cells were incubated at 37° C. overnight for 24 h. The test compounds were 10-fold diluted to give a final concentration, and 10 μL of the diluted compounds was added to each well of the cell culture plate. The mixture was incubated at 37° C. for 6 h. The cells were then washed gently, the culture medium was discarded, and the cells were washed once with 200 μL of 0.1% o PBST. 50 μL of 4% PFA was added to each well, and the cells were immobilized at room temperature for 20 min, and then washed with PBS 2-3 times. 50 μL of 0.2% o Triton X-100 was added to each well, and the cells were left to stand at room temperature for 15 min and washed with 0.1% PBST 3 times. 100 uL of 3% BSA (0.6 g BSA+20 mL PBS) was added to each well, and the mixture was blocked at 37° C. for 30 min. After the blocking was completed, the liquid was removed and a primary antibody (SUMO-2/3 (181H8) Rabbit mAb, 1:400 dilution) was prepared with […]. 30 μL of the diluted primary antibody was added to each well, and the mixture was incubated at 4° C. overnight. The cells were washed 3 times with 200 μL of 0.1% o PBST. […] The fluorescence signal of the sample was detected and compared to the DMSO group, and the inhibition rate and IC50 were calculated.

SMILES | IC50
NS(=O)(=O)OC[C@H]1C[C@@H](Nc2ncncc2C(=O)c2cc3c(s2)CN(C2CC2)CC32OCCc3ccc(F)cc32)C[C@@H]1O (some centres unmarked) | 50 to 200 nM
NS(=O)(=O)OC[C@H]1C[C@@H](Nc2ncncc2C(=O)c2cc3c(s2)CCC[C@@]32NCCc3ccc(Cl)nc32)C[C@@H]1O | > 200 nM
